Reference: patent US20240116998A1, “GLUCAGON-LIKE PEPTIDE-1 RECEPTOR ANTAGONISTS” (INDIANA UNIVERSITY RESEARCH AND TECHNOLOGY CORPORATION, priority 2021, published 2024)

By UniProt entry, the sequences of proteins in these tests, tags left out. Where a name states a change or a piece, a line headed by the entry shows the natural chain unless it says otherwise.
UniProt P43220: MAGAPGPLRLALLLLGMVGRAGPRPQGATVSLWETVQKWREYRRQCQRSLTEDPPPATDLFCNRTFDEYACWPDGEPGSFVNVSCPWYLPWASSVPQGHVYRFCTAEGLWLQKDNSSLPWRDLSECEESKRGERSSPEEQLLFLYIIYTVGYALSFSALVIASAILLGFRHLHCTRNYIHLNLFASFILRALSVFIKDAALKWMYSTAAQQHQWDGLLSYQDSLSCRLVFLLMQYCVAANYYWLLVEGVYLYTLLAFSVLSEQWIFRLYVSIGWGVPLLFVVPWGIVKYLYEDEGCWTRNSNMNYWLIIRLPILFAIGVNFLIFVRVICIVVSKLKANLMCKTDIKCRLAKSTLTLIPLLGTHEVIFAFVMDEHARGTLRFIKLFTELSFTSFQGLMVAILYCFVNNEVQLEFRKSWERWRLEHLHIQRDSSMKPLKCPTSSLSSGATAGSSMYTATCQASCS

Target: human GLP-1 receptor (human, UniProt P43220 24-463)
Test: cell-based or functional assay

Binder	IC50(nM) (cAMP luciferase reporter, antagonism of 0.05 nM GLP-1)
DLWKQMEEEAVRLFIEWLKNGGPSSGAPPPSK (K40(C18 DiAcid); C-terminal amide (-NH2)) [Ex9-40amide, W11, K40(C18 diacid)]	43 nM
DLWKQMEEEAVRLFIEWLKNGGPSSGAPPPSK (K40(mPeg-gE(C18 diacid)); C-terminal amide (-NH2)) [Ex9-40amide, W11, K40(mPeg-γE-C18 diacid)]	87 nM
